Data taken from article PMC3849007 (Journal of Experimental & Clinical Cancer Research : CR, 2013).

Each compound was assayed on 5′-d[CGA3T3C(CT)2GA3T3CG]-3′ hairpin duplex DNA (assay: Surface plasmon resonance, duplex DNA). Conditions: 10 mM HEPES, 200 mM KCl, 3 mM EDTA, 0.01% P20, pH 7.4.
Type: binding

Q: Which “Surface plasmon resonance K, Duplex (D) DNA” value (shortened to “Surface plasmon resonance K”) does the source give for `Cc1cc2c3c([n+](C)c4ccc(F)cc4c3c1)-c1cc(F)ccc1N2C` [Compound 1, 3,11-Difluoro-6,8,13-trimethyl-8H-quino[4,3,2-kl]acridinium metho-sulfate] here?
A: The value was 500000 M⁻¹.

Q: How did the “Surface plasmon resonance K” value turn out when `CC(=O)Nc1ccc2c3cccc4c3c([n+](C)c2c1)-c1ccccc1N4C` [Compound 2, 2-Acetylamino-8,13-dimethyl-8H-quino[4,3,2-kl]-acridinium iodide] was run?
A: The value was 400000 M⁻¹.

Q: With `CC(=O)Nc1ccc2c(c1)c1cccc3c1c([n+]2C)-c1ccccc1N3C` [Compound 3, 3-acetylamino-8,13-dimethyl-8H-quino[4,3,2-kl]-acridinium iodide] as the compound, how does the “Surface plasmon resonance K” value read?
A: Its value is 700000 M⁻¹.

Q: For `CC[n+]1c2c3c(cc(C)cc3c3cc(F)ccc31)N(C)c1ccc(F)cc1-2` [Compound 8, 13-Ethyl-3,11-difluoro-6,8-dimethyl-8H-quino[4,3,2-kl]acridinium trifluoromethosulfate], which “Surface plasmon resonance K” value is on record?
A: The value was under 50000 M⁻¹.
